From PubChem BioAssay AID570 (The Scripps Research Institute Molecular Screening Center, 2006) come the findings set out here.

This is a selection; strong and weak results do not stand in their true shares. Calls of active or inactive are those of the source.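 How the source made its calls: active means inhibition above the mean of compound-free control plate wells plus 3 SD (cut at about 14% in these data); inactive means the rest.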

The test concerns the target Collagenase 3 (Homo sapiens) (UniProt P45452). The test is described as follows: inhibition of MMP13 collagenase activity – biochemical, FRET peptide cleavage, primary screen (AID 570).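 Further: 0% = DMSO wells and 100% = wells with reference MMP-13 inhibitor after basal subtraction.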 The settings on record: MMP-13 fTHP FRET cleavage, Mca fluorescence; at 4 µM; hits give high values.
Broadly, the inhibition is the relative decrease from the control value, in per cent. In the case of `COc1ccc(NC2CCN(CCc3ccccc3)CC2)c(OC)c1`, the inhibition was inactive: -5.2%.

For `O=C(OC1CN2CCC1CC2)C1c2ccccc2Oc2ccccc21` (configuration not stated), the inhibition was inactive: -1.5%.

With `N#CC1(Nc2ccccc2)CCN(CCc2ccccc2)CC1`, the inhibition is inactive: 0.1%.

In the case of `N/C(=N\O)c1c(N)no[n+]1[O-]`, the inhibition is inactive: 4.7%.

Turning to `CCC(CO)(C(=O)OC1CN2CCC1CC2)c1ccccc1` (configuration not stated), the inhibition is inactive: 0.2%.

`CCOc1ncccc1C(=O)NCC1(N2CCOCC2)CCCCC1`: the inhibition is inactive: -8.9%.

Take `Fc1ccccc1NC1CCN(Cc2ccccc2)CC1`: the inhibition was inactive: -8.2%.
